According to patent US7795456B2, “Insecticidal N-substituted sulfoximines” (Dow AgroSciences LLC, priority 2004, dated 2010):

Columns and labels:
[1] = test system: yellow fever mosquito (Aedes aegypti) larvae; assay: Insecticidal test for mosquito, submerge test; assay type: in vivo; conditions: 72 h
[2] = test system: fruit fly (Drosophila melanogaster); assay: Insecticidal test for fruit fly, dietary; conditions: 25 μg/cm2, 4 h
[3] = test system: beet armyworm (Spodoptera exigua); assay: Insecticidal test for beet armyworm in injection assays; conditions: 4th instar, 1 h observation
[4] = test system: cotton aphid (Aphis gossypii); assay: Insecticidal test for cotton aphid, foliar spray on squash
[5] = test system: sweet potato whitefly (Bemisia tabaci); assay: Insecticidal test for sweet potato whitefly, foliar spray on cotton; conditions: 13 or 14 days, Corrected % Control
[6] = test system: green peach aphid (Myzus persicae); assay: Insecticidal test for green peach aphid, foliar spray on cabbage seedlings; conditions: rundown assay, 3 days

## O=[N+]([O-])N=S1(=O)CCCC1
[1]
  YFM 26: % control at 26 ppm against yellow fever mosquito in submerge tests: G
[2]
  FF SYM: % showing intoxicated symptoms at 25 μg/cm2 against fruit fly in dietary tests: G
[3]
  BAW SYM: % showing intoxicated symptoms at 10 μg/larva against beet armyworm in injection tests: F (Less than 50)
[4]; 0.049 ppm, rundown assay
  % Control at ppm, against cotton aphid: 0.049: C (70-79)
[4]; 0.195 ppm, rundown assay
  % Control at ppm, against cotton aphid: 0.195: B (80-89)
[4]; 0.78 ppm, rundown assay
  % Control at ppm, against cotton aphid: 0.78: B (80-89)
[4]; 3.12 ppm, rundown assay
  % Control at ppm, against cotton aphid: 3.12: A (90-100)
[4]; 12.5 ppm, rundown assay
  % Control at ppm, against cotton aphid: 12.5: A (90-100)
[4]; 50 ppm, foliar spray, 3 days, Corrected % Control (Abbott)
  CA 50: % control at 50 ppm against cotton aphid in foliar spray tests: A (90-100)
[4]; 50 ppm, rundown assay
  % Control at ppm, against cotton aphid: 50: A (90-100)
[4]; 200 ppm, foliar spray, 3 days, Corrected % Control (Abbott)
  CA 200: % control at 200 ppm against cotton aphid in foliar spray tests: A (90-100)
[5]
  SPW 200: % control at 200 ppm against sweet potato whitefly in foliar spray tests: G
[6]; 0.049 ppm
  % Control at ppm, against green peach aphid: 0.049: F (Less than 50)
[6]; 0.195 ppm
  % Control at ppm, against green peach aphid: 0.195: F (Less than 50)
[6]; 0.78 ppm
  % Control at ppm, against green peach aphid: 0.78: E (50-59)
[6]; 3.12 ppm
  % Control at ppm, against green peach aphid: 3.12: D (60-69)
[6]; 12.5 ppm
  % Control at ppm, against green peach aphid: 12.5: D (60-69)
[6]; 50 ppm
  % Control at ppm, against green peach aphid: 50: D (60-69)
